One assay concerns the target Mu-type opioid receptor (Homo sapiens, UniProt P35372). As to the kind of experiment: Displacement of [3H]DAMGO from human MOR expressed in HEK293 cells after 60 mins by scintillation counting analysis.
Assay [1] concerns the target Kappa-type opioid receptor (Homo sapiens, UniProt P41145). Description: Displacement of [3H]U-69593 from human KOR expressed in HEK293 cells after 60 mins by scintillation counting analysis.
The target in assay [2] is Delta-type opioid receptor (Homo sapiens, UniProt P41143).

Sequences of proteins named here, by UniProt entry; tags and fusion partners are left off.
UniProt P35372, whole entry: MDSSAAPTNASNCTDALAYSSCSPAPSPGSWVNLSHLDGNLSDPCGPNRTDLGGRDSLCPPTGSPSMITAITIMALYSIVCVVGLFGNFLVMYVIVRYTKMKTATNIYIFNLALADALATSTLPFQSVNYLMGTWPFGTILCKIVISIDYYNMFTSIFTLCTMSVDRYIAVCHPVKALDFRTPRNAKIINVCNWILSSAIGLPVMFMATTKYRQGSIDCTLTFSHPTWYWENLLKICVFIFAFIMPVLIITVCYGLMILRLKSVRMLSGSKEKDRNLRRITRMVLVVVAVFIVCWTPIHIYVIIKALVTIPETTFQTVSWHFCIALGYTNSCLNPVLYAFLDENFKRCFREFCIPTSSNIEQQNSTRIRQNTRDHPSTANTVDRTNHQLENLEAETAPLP
UniProt P41145, whole entry: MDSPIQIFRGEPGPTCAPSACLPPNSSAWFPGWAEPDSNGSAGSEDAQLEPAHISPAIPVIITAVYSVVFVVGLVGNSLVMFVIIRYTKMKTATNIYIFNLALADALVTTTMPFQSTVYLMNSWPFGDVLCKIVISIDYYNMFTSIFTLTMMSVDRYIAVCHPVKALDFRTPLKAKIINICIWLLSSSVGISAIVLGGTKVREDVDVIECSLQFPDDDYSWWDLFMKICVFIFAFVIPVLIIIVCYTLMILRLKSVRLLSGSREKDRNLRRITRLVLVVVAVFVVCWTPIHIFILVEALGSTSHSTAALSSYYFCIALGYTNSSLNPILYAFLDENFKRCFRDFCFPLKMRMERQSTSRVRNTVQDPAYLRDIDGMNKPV
UniProt P41143, whole entry: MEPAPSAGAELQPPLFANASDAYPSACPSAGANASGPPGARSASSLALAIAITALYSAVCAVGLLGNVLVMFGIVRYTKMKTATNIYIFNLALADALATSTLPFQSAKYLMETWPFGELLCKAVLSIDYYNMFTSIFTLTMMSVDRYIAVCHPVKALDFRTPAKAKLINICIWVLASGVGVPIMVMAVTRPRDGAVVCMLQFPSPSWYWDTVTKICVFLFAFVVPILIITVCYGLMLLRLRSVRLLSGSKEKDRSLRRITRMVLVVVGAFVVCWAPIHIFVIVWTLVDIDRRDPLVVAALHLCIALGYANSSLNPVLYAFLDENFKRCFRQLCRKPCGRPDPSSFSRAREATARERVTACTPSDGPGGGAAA

In BindingDB's records for 25268943 one finds Ki data, which are given here for one compound.

For `N=C(N)NCCC[C@H](N)C(=O)NCC1(Nc2ccccc2)CCN(Cc2ccccc2)CC1`, the Ki on Mu-type opioid receptor turned out to be 3.4 nM; in assay [1], 4.8 nM; in assay [2], 37 nM.
